Results published in patent publication EP1739083A1, “Benzylidene-1,3-thiazolidine-2,4-dione compounds, uses thereof and compositions for stimulating or inducing the growth and/or for reducing the loss and/or for increasing the density of keratin fibres” (L'Oreal, priority 2005, dated 2007).

Target: T1, 15-PGDH de type 1 (Homo sapiens, UniProt P15428)
T1 construct: made in house
T1 sequence (P15428 1-266): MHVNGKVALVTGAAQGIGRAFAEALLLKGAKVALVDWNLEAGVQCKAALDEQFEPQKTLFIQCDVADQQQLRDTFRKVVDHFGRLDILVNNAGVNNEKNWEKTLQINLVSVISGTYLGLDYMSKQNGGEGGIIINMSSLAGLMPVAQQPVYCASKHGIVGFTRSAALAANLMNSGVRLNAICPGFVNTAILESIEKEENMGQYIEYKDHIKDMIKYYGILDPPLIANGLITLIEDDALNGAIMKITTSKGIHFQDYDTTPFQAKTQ
Experiment: Test on 15-PGDH type 1 (spectrophotometric, NADH formation at 340 nm, PGE2 substrate)
Format: biochemical
Experimental: L'enzyme 15-PGDH est obtenue comme décrit dans la demande FR 02/05067 déposée au nom de L'Oréal, en suspension dans un milieu adapté à une concentration de 0,3 mg/mL puis bloquée à - 80°C. Pour les besoins du test, cette suspension est décongelée et stockée dans de la glace.
Par ailleurs on prépare un tampon Tris 100 mM, pH = 7,4, contenant 0,1 mM de dithiothréitol (D5545, Sigma-Aldrich, L'isle D'Abeau Chesne, BP 701, 38297, Saint Quentin Fallavier), 1,5 mM de β-NAD (N6522, Sigma-Aldrich, L'isle D'Abeau Chesne, BP 701, 38297, Saint Quentin Fallavier), 50 µM de Prostaglandine E2 (P4172, Sigma-Aldrich, L'isle D'Abeau Chesne, BP 701, 38297, Saint Quentin Fallavier).
Dans la cuve d'un spectrophotomètre (Perkin-Elmer, Lambda 2) thermostaté à 37°C, dont la longueur d'onde de mesure est réglée à 340 nm, sont introduits 0,965 ml de ce tampon (préalablement porté à 37°C). 0,035 mL de suspension enzymatique à 37°C sont introduits dans la cuve concomitamment à l'enregistrement ( correspondant à une augmentation de la densité optique à 340 nm). La vitesse maximale de réaction est relevée.

- IC50: 1.4 µM
Compound: O=C1NC(=O)C(=Cc2ccccc2Oc2ccc(C34CC5CC(CC(C5)C3)C4)cc2)S1 [compound 11, (5Z)-5-[2-[4-(1-adamantylphenoxy)benzylidene]-1,3-thiazolidine-2,4-dione]
